The record followed here is US11078188B2, “Dihydroquinoxaline bromodomain recognition protein inhibitor, preparation method and use thereof” (SHANGHAI INSTITUTE OF MATERIA MEDICA, CHINESE ACADEMY OF …, priority 2017, dated 2021).

What is called pIC50 is the negative decadic logarithm of the IC50, by convention in mol/L.

pIC50: −log10 of the molar value.

The subject of this experiment is human myeloma cells MM.1S. Put plainly: MM.1S cell viability, CCK-8 method. The conditions noted are these: read-out: MM.1S IC50, 72 h treatment. For orientation: Formazan colour is commonly taken as a measure of viable cells.

Take `Cc1ccc(-n2c(C)nnc2-c2ccc3c(c2)N(C2CC2)C(C)C(=O)N3C)cc1` (stereo not shown): the pIC50 was 8.38.
